From patent US20260001864A1, “COMPOUND CONTAINING SULFAMIDE STRUCTURE, AND PREPARATION METHOD THEREFOR AND APPLICATION THEREOF, AND PHARMACEUTICAL COMPOSITION AND APPLICATION” (Nanjing Shuohui Pharmatechnology Co., Ltd, priority 2021, published 2026)

Chains of the proteins cited; added tags and fusions are not shown.
UniProt P27112, whole entry: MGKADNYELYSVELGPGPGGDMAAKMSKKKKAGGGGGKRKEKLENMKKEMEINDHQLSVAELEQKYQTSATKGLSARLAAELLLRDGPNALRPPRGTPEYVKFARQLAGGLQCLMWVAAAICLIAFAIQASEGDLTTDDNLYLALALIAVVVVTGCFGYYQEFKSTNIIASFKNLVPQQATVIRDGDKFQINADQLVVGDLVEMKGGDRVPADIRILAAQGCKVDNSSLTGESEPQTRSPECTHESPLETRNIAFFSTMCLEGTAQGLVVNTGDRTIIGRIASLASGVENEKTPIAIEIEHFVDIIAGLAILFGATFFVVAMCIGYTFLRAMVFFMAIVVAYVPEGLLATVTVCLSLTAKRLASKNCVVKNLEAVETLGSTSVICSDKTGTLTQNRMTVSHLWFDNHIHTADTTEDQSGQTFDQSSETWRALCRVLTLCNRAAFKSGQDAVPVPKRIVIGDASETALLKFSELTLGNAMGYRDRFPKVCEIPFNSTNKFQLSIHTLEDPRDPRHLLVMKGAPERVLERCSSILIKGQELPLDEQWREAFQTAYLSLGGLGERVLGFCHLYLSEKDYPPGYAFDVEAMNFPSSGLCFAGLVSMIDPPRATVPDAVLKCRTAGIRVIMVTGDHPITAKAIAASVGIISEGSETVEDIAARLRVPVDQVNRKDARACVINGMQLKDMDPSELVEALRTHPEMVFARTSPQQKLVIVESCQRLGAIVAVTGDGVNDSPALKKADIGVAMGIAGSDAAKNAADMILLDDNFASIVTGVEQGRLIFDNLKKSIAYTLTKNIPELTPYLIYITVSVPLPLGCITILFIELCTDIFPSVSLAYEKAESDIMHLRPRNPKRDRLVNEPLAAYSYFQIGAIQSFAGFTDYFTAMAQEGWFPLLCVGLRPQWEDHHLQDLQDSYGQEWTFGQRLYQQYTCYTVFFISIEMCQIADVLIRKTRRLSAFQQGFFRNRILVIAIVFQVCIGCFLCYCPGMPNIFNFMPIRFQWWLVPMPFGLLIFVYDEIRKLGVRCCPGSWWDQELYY
UniProt P18597, whole entry partner: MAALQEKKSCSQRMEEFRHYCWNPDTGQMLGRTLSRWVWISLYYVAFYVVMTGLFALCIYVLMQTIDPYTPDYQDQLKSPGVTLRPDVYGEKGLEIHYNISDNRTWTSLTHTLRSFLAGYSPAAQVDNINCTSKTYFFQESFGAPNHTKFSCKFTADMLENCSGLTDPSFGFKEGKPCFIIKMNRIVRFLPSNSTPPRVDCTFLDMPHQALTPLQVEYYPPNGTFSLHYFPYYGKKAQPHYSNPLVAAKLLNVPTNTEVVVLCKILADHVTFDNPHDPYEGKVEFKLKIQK

Key:
[1] = Rat tissue distribution test (oral, LC-MS-MS); design: Hepatic drug concentration: unit not given here; settings: tested form: HCl; for Hepatic drug concentration / Exposure level (0-4 h): oral 4 mg/kg; for Hepatic drug concentration: rat; for Ratio of exposure level: liver set to 1, oral 4 mg/kg; for Exposure level (0-4 h): male SD rats
Experimental: Three healthy male SD rats (body weight range 220-250 g, Zhejiang Charles River) were taken and assigned into one group (n=3). Compound 48, Compound A9 or comparison compound Vonoprazan were administered orally at a dose of 4 mg/kg.
Solvent for preparing pharmaceutical preparations: Pure water. The rats were fasted 4 h prior to the administration. […] The tissue was homogenized, and the corresponding blank tissue was used for preparation of a calibration curve and QC quantification. Blood samples should be centrifuged to extract plasma within 1 hour of collection and kept on crushed ice prior to the centrifugation. Plasma samples obtained by centrifugation were stored in a freezer until analysis. Centrifugation conditions: 4-10° C., 8000 rpm, 6 min. The concentration of the sample was determined by LC-MS-MS (MS03: Shimadzu LC30AD and API 4000)), and the exposure data were calculated by WINNOLIN software.

[2] = tested on: histamine-induced gastric acid secretion; test: Inhibition of histamine-induced gastric acid secretion in rats (pylorus ligation); settings: SD rats, total acid over 3 h after histamine, tested form: HCl
Experimental: 70 SPF-level SD rats with a weight of 180-220 g (Hangzhou Medical College (produced)), randomly grouped by weight, including negative control groups (isovolumetric saline) and model control groups (isovolumetric saline), and compounds obtained in the foregoing preparation examples of the present invention (i.e., compounds or compound hydrochlorides) (2 mg/kg or 4 mg/kg), 10 rats each group, including 5 males and 5 females. The rats were fasted, but were allowed to drink water for 24 h. After 24 h, the rats were given the compound at 1 ml/100 g by gavage, once in each group, and the rats in the negative control groups and the model groups were given an equal volume of saline by gavage. After that, the rats were anesthetized with chloral hydrate 300 mg/kg (1 ml/100 g) and fixed on a rat plate, and the abdominal wall was incised along the abdominal midline from the subxiphoid process of the sternum, and the incision was approximately 2-3 cm and was made on the left costal margin, and the stomach was exposed to the incision by gently pushing it with the fingers upwards. The pylorus was ligated with a thread under the pylorus (other neighboring vessels were not ligated), and the abdominal wall incision was sutured. The animals were given histamine dihydrochloride (30 mg/10 ml/kg) subcutaneously after 1 h of gavage of the test compound or saline. […]

[3] = target: H+/K+-ATPase (rabbit gastric mucosal microsomes) (Oryctolagus cuniculus (Rabbit), UniProt P27112); test: In vitro screening test of H+/K+-ATPase inhibition (malachite green); settings: read-out: IC50, inhibitory effect on H+/K+-ATPase activity, pH 6.5, 37° C. 30 min, tested form: HCl
Experimental: This test example evaluates the inhibitory effects of the compounds of the present invention on the activity of H+/K+-ATPase by an in vitro screening test, and expresses them with the IC50 values of the compounds (obtained by calculating the inhibition rates at different concentrations). […]
5 μL of rabbit gastric mucosal microsomes (H^+/K^+-ATPase) was added to 45 μL of buffer II, then 5 μL of compound solution was added, and then 5 μL of 5 mM ATP solution was added to start the reaction and pre-react at 37° C. for 30 min. 15 μL of malachite green solution was added to terminate the reaction, balancing was conducted at room temperature for 20 min, and read the optical absorbance at 620 nm. […]

Structure (SMILES) | Hepatic drug concentration ([1]; liver, 15 min) | Hepatic drug concentration ([1]; liver, 1 h) | Hepatic drug concentration ([1]; liver, 2 h) | Hepatic drug concentration ([1]; liver, 4 h) | Hepatic drug concentration ([1]; liver, 24 h) | Ratio of exposure level ([1]; liver) | Exposure level (0-4 h) ([1]; liver) [ng·h/mL] | Ratio of exposure level ([1]; plasma) | Exposure level (0-4 h) ([1]; plasma) [ng·h/mL] | Ratio of exposure level ([1]; stomach) | Exposure level (0-4 h) ([1]; stomach) [ng·h/mL] | Acid inhibition rate ([2]; 2 mg/kg by gavage) [%] | Acid inhibition rate ([2]; 4 mg/kg by gavage) [%] | pIC50 [3]
CNCc1cc(-c2ccc(OCC3CC3)cc2F)n(S(=O)(=O)c2cccnc2)c1 | 1541.3 | 846 | 262 | 31.5 | 1.3 | 1 | 2326.8 | 0.02 | 43.1 | 5.7 | 13224.3 | 83 | 93 | –
CNCc1cc(-c2ccc(OCc3cccc(F)n3)cc2F)n(S(=O)(=O)c2cccnc2)c1 | – | – | – | – | – | – | – | – | – | – | – | – | – | 6.77

pIC50: −log10 of the molar value.
